The text below walks through data of US20050042213A1, “Methods and pharmaceutical compositions for modulating heparanase activation and uses thereof” (InSight Biopharmaceuticals Ltd., priority 2003, published 2005).

Experiment [1] addresses T1, Cathepsin L (Homo sapiens, UniProt P07711).
T1 construct: purchased Calbiochem
Kind of experiment: Proteolytic activity assay: cleavage of fluorogenic peptides by cathepsin L. The format is biochemical. The following applies: substrate cleaved by Cathepsin L. How it is done:
(§1) Assay was done in a reaction mixture containing 200 mM acetate buffer, pH 5.5, 4 mM EDTA and 8 mM DTT. Following a 20 minutes incubation at 37° C., fluorescence released due to proteolytic activity was determined using a BMG POLARstar™ Galaxy fluorometer: excitation at 390 nm and emission at 460 nm.

The target in experiment [2] is Cathepsin B (Homo sapiens, UniProt P07858). Kind of experiment: Proteolytic activity assay: cleavage of fluorogenic peptides by cathepsin B. Type of experiment: biochemical. The settings on record: substrate cleaved by Cathepsin B. Here is the method: as §1

“Z-FR-AMC [Cathepsin L-substrate, reference compound]”: in experiment [1], the “Activity (δfluorescence)” value was determined as 38254.

Take “Z-RR-AMC [Cathepsin B-substrate, reference compound]”: the “Activity (δfluorescence)” value in experiment [2] was determined as 53337.
